Experiment: Dry film/coating on titanium foil: inspection and redissolution/rehydration in water
Assay type: physicochemical
Details: film dried on titanium foil at room temperature about 1 hour
Protocol: In order to test the ability of aqueous albumin solutions to form solid coatings on titanium microprojections, a coated microprojection array was prepared in the following manner. […] To aliquots of these solutions, fluorescein, a marker added for subsequent visualization of the dried coating, was added at a final concentration of 1 millimolar. A 1-microliter drop of this solution was spread on titanium foil having an area of about one centimeter square. The solution was allowed to dry at room temperature for about 1 hour.
A coated microprojection array was prepared in the following manner. […] To this suspension, fluorescein, a marker added for subsequent visualization, was added at a final concentration of 1 millimolar. A 1 microliter drop of this suspension was spread on titanium foil having an area of 1 square centimeter and allowed to dry at room temperature for about an hour.
To 50 microliters of this solution, 50 microliters of a 40 percent by weight aqueous solution of lidocaine HCl was added. A control solution containing no albumin was also prepared. 1-microliter drops of these solutions were spread on titanium foil having an area of approximately 1 square centimeter. The solutions were allowed to air dry at room temperature for about 1 hour.

Substance: human albumin: Human albumin (Sigma, Fraction V) utilized as a model biocompatible carrier
- redissolution of the dry film/coating in water: fast and complete

From patent US7963935B2, “Microprojection array having a beneficial agent containing coating” (Alza Corporation, priority 2001, dated 2011)
